# Apparent affinities of Ab-14 variants for a coronavirus HR2 peptide

The target is the same throughout: PDVDLGDISGINAS, from the HR2 region of SARS-CoV-2 spike.

Ab-14 is the parent antibody, in scFv form: VH, then the linker GGGGSGGGGSGGGGS, then VL. The heavy chain is unchanged in all variants.
VH: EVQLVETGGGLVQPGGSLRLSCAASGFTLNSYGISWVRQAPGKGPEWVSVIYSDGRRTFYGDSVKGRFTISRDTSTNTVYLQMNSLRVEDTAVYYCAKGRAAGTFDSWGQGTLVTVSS
VL: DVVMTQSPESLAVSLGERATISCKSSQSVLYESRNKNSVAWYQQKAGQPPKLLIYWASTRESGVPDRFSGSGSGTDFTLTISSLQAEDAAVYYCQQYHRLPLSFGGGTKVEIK

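Phage display of a naive human antibody library on the peptide gave the parent. Library AAYL50 holds single substitutions and randomly drawn double and triple substitutions in the CDRs. The scFvs were displayed on barcoded MATa yeast, the peptide on MATalpha yeast. The frequency of each diploid, read from paired DNA barcodes, reflects how well the two displayed proteins bind. Scores were corrected for input abundance and mapped to Kd with protein pairs of known affinity run in the same pool. Each pool was mated in three replicate cultures.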

Positions count from residue 1 of the parent VL; H98W puts W in place of H.
These are single substitutions, in order of position.
Numbers give log10(Kd / nM), so 0 is 1 nM and 3 is 1 µM. Smaller is tighter.
The mean shown is taken over the replicates in which the pair was detected.
Where no diploid with the target was found in any replicate, the entry reads "nd": below detection, most likely a poor binder, though not proof of it.

| # | changes | mean, log10 nM | replicates with signal | empty controls |
|---|---|---|---|---|
| 1 | H98W | 0.91 | 3 of 3 | 0 of 9 |
| 2 | H98A | 1.77 | 3 of 3 | 2 of 9 |
| 3 | H98I | 0.96 | 3 of 3 | 5 of 9 |
| 4 | R99Q | 0.81 | 3 of 3 | 1 of 9 |
| 5 | R99F | 2.62 | 3 of 3 | 1 of 9 |
| 6 | R99L | 1.13 | 3 of 3 | 3 of 9 |
| 7 | R99K | 0.72 | 3 of 3 | 1 of 9 |
| 8 | R99S | 1.50 | 3 of 3 | 6 of 9 |
| 9 | R99P | nd | 0 of 3 | 1 of 9 |
| 10 | R99Y | 2.78 | 3 of 3 | 3 of 9 |
| 11 | R99W | nd | 0 of 3 | 0 of 9 |
| 12 | R99A | 0.92 | 3 of 3 | 0 of 9 |
| 13 | R99M | 1.08 | 3 of 3 | 0 of 9 |
| 14 | R99E | 2.77 | 3 of 3 | 6 of 9 |
| 15 | R99D | 2.39 | 3 of 3 | 0 of 9 |
| 16 | R99V | 2.22 | 3 of 3 | 3 of 9 |
| 17 | R99C | 2.63 | 1 of 3 | 0 of 9 |
| 18 | R99N | 1.14 | 3 of 3 | 3 of 9 |
| 19 | R99T | 4.33 | 2 of 3 | 2 of 9 |
| 20 | R99H | 3.13 | 3 of 3 | 5 of 9 |
| 21 | R99G | 1.80 | 1 of 3 | 0 of 9 |
| 22 | L100P | 1.98 | 3 of 3 | 1 of 9 |
| 23 | L100S | 1.44 | 2 of 3 | 0 of 9 |
| 24 | L100R | nd | 0 of 3 | 1 of 9 |
| 25 | L100C | 1.18 | 3 of 3 | 2 of 9 |
| 26 | L100G | 1.28 | 3 of 3 | 0 of 9 |
| 27 | L100K | 0.97 | 3 of 3 | 1 of 9 |
| 28 | L100T | 1.58 | 3 of 3 | 2 of 9 |
| 29 | L100Q | 1.50 | 3 of 3 | 1 of 9 |
| 30 | L100W | nd | 0 of 3 | 6 of 9 |
| 31 | L100F | 4.70 | 2 of 3 | 2 of 9 |
| 32 | L100M | 0.80 | 3 of 3 | 2 of 9 |
| 33 | L100I | 1.78 | 3 of 3 | 3 of 9 |
| 34 | L100Y | 2.64 | 3 of 3 | 0 of 9 |
| 35 | L100A | 3.54 | 1 of 3 | 3 of 9 |
| 36 | L100N | nd | 0 of 3 | 3 of 9 |
| 37 | L100H | 1.02 | 3 of 3 | 0 of 9 |
| 38 | L100V | 1.06 | 3 of 3 | 1 of 9 |
| 39 | P101G | 2.39 | 2 of 3 | 1 of 9 |
| 40 | P101A | 1.60 | 3 of 3 | 0 of 9 |
| 41 | P101T | 0.50 | 3 of 3 | 1 of 9 |
| 42 | P101Y | nd | 0 of 3 | 0 of 9 |
| 43 | P101E | 0.68 | 3 of 3 | 5 of 9 |
| 44 | P101R | nd | 0 of 3 | 0 of 9 |
| 45 | P101F | 3.80 | 1 of 3 | 0 of 9 |
| 46 | P101M | 4.24 | 1 of 3 | 1 of 9 |
| 47 | P101C | 0.83 | 3 of 3 | 4 of 9 |
| 48 | P101W | 3.45 | 2 of 3 | 3 of 9 |
| 49 | P101S | 1.58 | 3 of 3 | 1 of 9 |
| 50 | P101K | nd | 0 of 3 | 2 of 9 |
| 51 | P101L | 1.53 | 3 of 3 | 1 of 9 |
| 52 | P101Q | nd | 0 of 3 | 1 of 9 |
| 53 | L102Y | 1.33 | 3 of 3 | 3 of 9 |
| 54 | L102N | 5.91 | 1 of 3 | 4 of 9 |
| 55 | L102C | 1.77 | 3 of 3 | 3 of 9 |
| 56 | L102E | 1.57 | 3 of 3 | 3 of 9 |
| 57 | L102M | 1.96 | 3 of 3 | 1 of 9 |
| 58 | L102P | 1.34 | 3 of 3 | 0 of 9 |
| 59 | L102F | 1.49 | 3 of 3 | 0 of 9 |
| 60 | L102A | nd | 0 of 3 | 0 of 9 |
| 61 | L102G | 5.81 | 1 of 3 | 0 of 9 |
| 62 | L102D | 0.78 | 3 of 3 | 2 of 9 |
| 63 | L102I | 1.65 | 3 of 3 | 0 of 9 |
| 64 | L102H | nd | 0 of 3 | 0 of 9 |
| 65 | L102K | 3.64 | 2 of 3 | 0 of 9 |
| 66 | L102Q | 3.98 | 1 of 3 | 0 of 9 |
| 67 | L102S | 1.41 | 3 of 3 | 5 of 9 |
| 68 | L102T | nd | 0 of 3 | 0 of 9 |
| 69 | L102R | nd | 0 of 3 | 0 of 9 |
| 70 | S103W | 2.66 | 3 of 3 | 1 of 9 |
| 71 | S103R | 3.95 | 3 of 3 | 0 of 9 |
| 72 | S103P | 3.78 | 2 of 3 | 2 of 9 |
| 73 | S103T | nd | 0 of 3 | 1 of 9 |

Excerpt, the final 6 entries:

{"changes": "L102T", "mean, log10 nM": "nd", "replicates with signal": "0 of 3", "empty controls": "0 of 9"}
{"changes": "L102R", "mean, log10 nM": "nd", "replicates with signal": "0 of 3", "empty controls": "0 of 9"}
{"changes": "S103W", "mean, log10 nM": "2.66", "replicates with signal": "3 of 3", "empty controls": "1 of 9"}
{"changes": "S103R", "mean, log10 nM": "3.95", "replicates with signal": "3 of 3", "empty controls": "0 of 9"}
{"changes": "S103P", "mean, log10 nM": "3.78", "replicates with signal": "2 of 3", "empty controls": "2 of 9"}
{"changes": "S103T", "mean, log10 nM": "nd", "replicates with signal": "0 of 3", "empty controls": "1 of 9"}

Three control strains display no target. For library AAYL50, 18% of the pairings with them gave a signal, with a median of 4.19 and one signal in twenty below 2.99, so weak values seen in few replicates may be background. The control count says in how many pairings with the empty strains this scFv gave a signal.
In this assay the parent's reference entry averaged 0.65; its copy inside this library read 1.68.

Reference: Engelhart et al. 2022, doi:10.1038/s41597-022-01779-4. File: FLAb, binding data.